This is an account of results in ChEMBL document CHEMBL3864151, “Discovery of imidazopyridazines as potent Pim-1/2 kinase inhibitors” (Bioorg Med Chem Lett, 2016).

Amino acid sequences for entries named in this document (tags omitted). A change or cut given only in a name is not applied to a line headed by its entry.
UniProt P11309, whole entry: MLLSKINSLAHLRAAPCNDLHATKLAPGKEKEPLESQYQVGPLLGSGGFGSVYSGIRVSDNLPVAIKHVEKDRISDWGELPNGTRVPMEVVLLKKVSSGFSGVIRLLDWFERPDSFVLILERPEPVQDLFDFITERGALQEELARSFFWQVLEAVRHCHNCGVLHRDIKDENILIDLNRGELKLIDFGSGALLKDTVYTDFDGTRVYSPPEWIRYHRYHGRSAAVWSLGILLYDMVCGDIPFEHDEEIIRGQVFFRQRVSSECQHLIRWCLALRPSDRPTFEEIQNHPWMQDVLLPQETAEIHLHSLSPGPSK
UniProt Q9P1W9: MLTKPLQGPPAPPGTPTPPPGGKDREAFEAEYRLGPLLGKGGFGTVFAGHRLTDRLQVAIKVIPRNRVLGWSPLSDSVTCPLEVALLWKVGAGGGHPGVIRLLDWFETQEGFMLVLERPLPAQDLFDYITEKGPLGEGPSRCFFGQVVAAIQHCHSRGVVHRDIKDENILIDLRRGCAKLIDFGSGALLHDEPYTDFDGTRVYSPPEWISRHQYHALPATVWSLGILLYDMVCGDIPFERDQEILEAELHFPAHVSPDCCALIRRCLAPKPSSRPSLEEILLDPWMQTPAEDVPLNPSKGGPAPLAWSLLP

Experiment [1] addresses Serine/threonine-protein kinase pim-1 (Homo sapiens, UniProt P11309). Briefly: Inhibition of recombinant Pim1 (unknown origin) by electrochemiluminescence assay.
Experiment [2] deals with Serine/threonine-protein kinase PIM (Homo sapiens, UniProt P11309+Q9P1W9+Q86V86). The experiment in a line: Inhibition of Pim1/2 in human KMS-12 cells assessed as decrease in BAD phosphorylation at Ser112 by Western blot method. It counts as cell-based. (In general: A western blot detects proteins with antibodies after separation by electrophoresis.)

As for `C[C@]1(N)CCCN(c2ccncc2Nc2ncc3ccc(-c4c(F)cccc4F)nn23)C1` (racemic), the 50% inhibitory concentration (IC50) (as a rule, the concentration that inhibits the measured activity by half) in experiment [1] was 10 nM.

As for `C[C@H]1[C@@H](N)CCCN1c1ccncc1Nc1ncc2ccc(-c3c(F)cccc3F)nn12`, the IC50 in experiment [2] was 2530 nM; in experiment [1], 0.51 nM.

`C[C@@H]1[C@@H](N)CCCN1c1ccncc1Nc1ncc2ccc(-c3c(F)cccc3F)nn12`: the IC50 was determined as 221 nM in experiment [2] and 0.062 nM in experiment [1].
